Experiments:
[1] = molecular target: Mu-type opioid receptor (Cavia porcellus, UniProt P97266); assay: Compound was tested for the inhibition of [3H]- [D-Ala2, N-MePhe4, Gly5-ol]-enkephalin (DAMGO) binding to Opioid receptor mu 1 in guinea pig brain homogenates; type: tissue-based
Summary of the method: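 Guinea pig brain membranes (washed, preincubated 37 °C 30 min to remove endogenous opioids) in 50 mM Tris pH 7.4. Test compound preincubated with membranes 15 min at 25 °C, then 0.6 nM [3H]DAMGO added and incubated 75 min at 25 °C. Nonspecific binding defined with 5 μM DAMGO. Filtration, scintillation counting. 12 concentrations, triplicate. IC50 by regression; Ki from saturation-derived KD.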

Protein sequences, listed by entry. Tags and fused reporters are not part of them. Lines headed by an entry give the natural chain unless they say otherwise; changes in a name come on top.
UniProt P97266, whole entry: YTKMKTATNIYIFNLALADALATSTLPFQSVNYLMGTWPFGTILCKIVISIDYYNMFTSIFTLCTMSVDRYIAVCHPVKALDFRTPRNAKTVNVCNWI
UniProt P41144: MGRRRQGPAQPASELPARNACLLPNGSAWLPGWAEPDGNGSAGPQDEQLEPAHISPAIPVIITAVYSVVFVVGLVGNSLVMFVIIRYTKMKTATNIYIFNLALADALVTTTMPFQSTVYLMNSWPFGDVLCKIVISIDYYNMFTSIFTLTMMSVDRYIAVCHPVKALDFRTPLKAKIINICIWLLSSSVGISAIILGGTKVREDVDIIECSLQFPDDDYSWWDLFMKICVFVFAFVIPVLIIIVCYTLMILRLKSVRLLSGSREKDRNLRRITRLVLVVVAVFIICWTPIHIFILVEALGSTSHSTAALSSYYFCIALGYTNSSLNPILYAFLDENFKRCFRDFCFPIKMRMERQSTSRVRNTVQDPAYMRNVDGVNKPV

[2] = molecular target: Kappa-type opioid receptor (Cavia porcellus, UniProt P41144); assay: Compound was tested for the inhibition of [3H]- (U69,593) binding to Opioid receptor kappa 1 in guinea pig brain homogenates; type: tissue-based

Compound: CC1(C)SSC[C@H](NC(=O)[C@@H](N)Cc2ccc(O)cc2)C(=O)N[C@@H](Cc2ccccc2)C(=O)N[C@@H]1C(=O)O
- Ki [1]: 107 nM
- Ki [2]: > 10000 nM
